# Screening data as filed in PubChem.
# Hits are enriched below; roughly 2.2% of the tested compounds scored in any of these assays.
# PI4K2A inh = blocks human PI4K2A kinase activity; Q9BTU6; purified PI4K2A, ADP-Glo luminescence, 1 h; stronger effect = lower value; activity change, negative = inhibition, % at 76.9 µM; actives 0.13% (n = 420,000); in the data active means activity change below about -50%; inconclusive means mostly about -30% to -49%
#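 ADP-Glo luminescence measured ADP generated by PI4K2A enzyme (4 ug/mL before mixing) with 1.2 mM PI substrate (pre-mix) and 300 microM ATP (pre-mix). Tris pH7.5 buffer with MgCl2, Triton X-100; 1 h reaction at ambient temperature.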
# miR-21 FLuc = miR-21 reporter, rising signal | AID 2288 | HeLa miR-21 FLuc reporter, luciferase, 48 h | 340,000 tested, under 10 active | Potency, µM (titrated, usually from 38.3 µM); active = well fitted rising curve with a large enough effect; inconclusive = small, poorly fitted or top-dose-only effect; inactive = no such curve, though single readings can be large or run the other way;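 also: miR-21 action dims this reporter so a rising signal means less miR-21 action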
#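 HeLa cells stably expressing CMV-driven firefly luciferase with a downstream miR-21 binding sequence, endogenously expressing miR-21, were treated with titrations (up to about 40uM final) for 48 hours at 37 degree Celsius. Luciferase luminescence was read after lysis.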
# Nrf2 ARE act = Nrf2 pathway activation | AREc32 ARE-luciferase reporter (MCF7-derived line), luminescence, 24 h | Potency, µM (highest dose often 46.1 µM), actives largely listed as activators | AID 624171 | actives 0.31% (n = 410,000); further: nearly all actives have a fitted effect of over 65% in size
#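 Cells of the AREc32 ARE-luciferase line are plated in OPTI-MEM containing 5% FBS and left overnight at 37 deg C. Compounds are pinned in, incubation continues 24 hr, and firefly luciferase signal is then measured.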
# Nrf2 block = blocks Nrf2 signaling; A549 ARE-Fluc reporter, luciferase luminescence, 18-24 h; actives 2.1% (n = 360,000); Potency, µM (series often up to 46 µM), hits mostly inhibitors; further: nearly all actives have a fitted effect of over 60% in size
#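 Nrf2 activity is the BugLite luminescence, read 15 min after reagent at room temperature, following CellTiter-Fluor cytotoxicity readout (30 min, 37C). Compound titrations were applied for 18-24 h to 5000 A549 ARE_Fluc cells/well in 5% FBS OPTI-MEM.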
# A549 tox-1 = kills or reduces viability of A549 cells in Nrf2 counter-screen; A549 ARE-Fluc cells, CellTiter-Fluor viability, 18-24 h; Potency, µM (top dose mostly 46 µM), most hits filed as inhibitors; actives 0.16% (n = 390,000); AID 504648
#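 Cytotoxicity counterscreen: CellTiter-Fluor fluorescence was measured in A549 ARE_Fluc cells after 18-24 h of compound exposure in a concentration series. The subsequent BugLite luminescent read reports ARE-luciferase activity.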
# GALK inhibitor = inhibitors of human galactokinase | actives 0.007% (n = 270,000) | P51570 | Purified GALK, Kinase-Glo residual ATP luminescence | Potency, µM (doses to about 57.5 µM), usual class: inhibitors | AID 1868
#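 Kinase-Glo Plus luminescence measured ATP left after a 1 h room-temperature reaction. The reaction used 5 nM GALK, 100 uM galactose and 35 uM ATP at pH 8.0 (20 mM HEPES, 5 mM MgCl2, 60 mM NaCl, 1 mM DTT, 0.01% BSA).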
# FLuc counter 3 = blocks purified firefly luciferase in Nrf2 counterscreen | shares compounds with Nrf2 block | purified firefly luciferase, luminescence inhibition | Potency, µM (titrated, usually from 57.5 µM), hits mostly inhibitors | actives 4% (n = 1,400) | AID 720522; further: nearly all actives have a fitted effect of over 65% in size
# A549 tox-2 = counter-screen for Nrf2 inhibitors: cytotoxicity in A549 ARE cells; AID 720523; Potency, µM (series often up to 46.1 µM), actives largely listed as inhibitors; shares compounds with Nrf2 block; A549 ARE-Fluc cells, cytotoxicity counterscreen; actives 2% (n = 1,400);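 further: cells exposed to compounds for 18 to 24 hours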
# ARE-Fluc inh = Nrf2 inhibition confirmed, A549 ARE-luciferase. A549 ARE-firefly luciferase reporter, luminescence. actives 74% (n = 1,400). shares compounds with Nrf2 block. AID 720524. Potency, µM (series often up to 46.1 µM), actives largely listed as inhibitors; further: nearly all actives have a fitted effect of over 65% in size
# Hits are given with their value; 0 = inactive; ? = inconclusive; - = not tested or not shown. Unless noted, the call rests on the fitted dose curve; in most records, active means well fitted curve in the direction sought with a large enough effect; inconclusive means small, poorly fitted or top-dose-only effect, or another doubt; inactive means no such curve, though single readings can be large; an effect the other way counts as inactive or inconclusive.
SMILES,PI4K2A inh,miR-21 FLuc,Nrf2 ARE act,Nrf2 block,A549 tox-1,GALK inhibitor,FLuc counter 3,A549 tox-2,ARE-Fluc inh
O=C(Cc1ccccc1)Nc1nc(-c2ccc(F)c(F)c2)cs1,0,0,0,0,0,0,-,-,-
COc1ccc(-c2csc(NC(=O)Cc3ccccc3)n2)cc1OC,0,0,0,2.6µM,0,0,0,0,-
Cc1cc(C)cc(N(CC(=O)NC2CCC(C)CC2)S(=O)(=O)c2ccccc2)c1 (stereo unspecified),0,-,-,-,-,-,-,-,-
COc1ccc2ccc3cccc[n+]3c2c1,0,-,0,4.6µM,0,-,0,0,23µM
O=C(Nc1nc2ncccn2c1-c1ccccc1)C1CC1,0,-,-,-,-,-,-,-,-
CCc1c(C)nc2ncnn2c1NCCc1ccc(Cl)cc1,0,0,0,7.3µM,0,0,0,0,4.6µM
O=C(Nc1nc(-c2ccc(S(=O)(=O)N3CCOCC3)cc2)cs1)c1ccccc1,0,?,0,4.6µM,0,0,?,0,-
Cc1ccc(C(=O)Nc2nc(-c3ccccn3)cs2)cc1S(=O)(=O)N1CCOCC1,0,-,0,8.2µM,?,-,11µM,?,1.6µM
O=C(Nc1nc(-c2cc3ccccc3o2)cs1)c1ccc(S(=O)(=O)N2CCCC2)cc1,0,0,0,4.1µM,0,0,0,0,5.2µM
Cc1ccc(-c2nc3cccc(C)n3c2Nc2ccc(F)cc2)o1,-,-,-,0,0,-,-,-,-
COC(=O)c1cn(-c2ccc3c(c2)[C@]2(CC(=O)N(C)C2c2ccccc2)C(=O)N3CC(C)C)nn1 (stereo partly specified),0,-,-,-,-,-,-,-,-
O=S(=O)(c1ccccc1)N1CCC(O)(CSc2ccc(Cl)cc2)CC1,0,0,0,9.2µM,0,0,0,0,-
COc1ccc(CCNc2cc(N3CCN(C(=O)c4ccccc4F)CC3)ccc2[N+](=O)[O-])cc1OC,0,0,0,2.1µM,?,0,0,0,6.5µM
COc1ccc(C(=O)N2CCN(c3ccc([N+](=O)[O-])c(NCCc4ccc(OC)c(OC)c4)c3)CC2)cc1,0,0,0,2.9µM,?,0,0,0,5.8µM
Cc1cc2c(s1)c1cnn(Cc3ccc(-c4ccccc4)cc3)c(=O)c1n2C,-,-,-,0,0,-,-,-,-
CC(C)[C@H](NC(=O)OC(C)(C)C)C(=O)N1CCC(Oc2cccnc2)CC1,0,-,-,-,-,-,-,-,-
O=C(c1ccc(S(=O)(=O)Nc2ccc(F)cc2)cc1)N1CCN(c2ccccn2)CC1,0,0,0,2.9µM,?,0,0,0,15µM
Cc1ccc(NS(=O)(=O)c2ccc(C(=O)N3CCN(c4ncccn4)CC3)cc2)cc1,0,0,0,5.8µM,?,0,0,0,8.2µM
O=C(c1ccc(NS(=O)(=O)c2ccc(F)cc2)cc1)N1CCCCC1,0,-,0,0,0,-,-,-,-
CC(=O)c1cc(-c2ccccc2S(=O)(=O)NC(C)(C)C)c(=O)n2c1CCC2,0,-,-,-,-,-,-,-,-
O=C(CCc1ccccc1)N[C@H]1[C@H](OC(=O)c2cnccn2)CCC[C@@]12C(=O)N(Cc1ccccc1)c1ccccc12,0,-,-,-,-,-,-,-,-
O=C(NCC1COc2ccccc2O1)c1ccc(NC(=O)c2c(Cl)cccc2Cl)cc1 (stereo unspecified),0,-,-,-,-,-,-,-,-
O=NNc1nc2ccccc2n1Cc1ccccc1,0,?,0,6.5µM,?,0,0,0,6.5µM
CC(=O)Nc1nc2ccccc2n1Cc1ccccc1,0,0,0,0,0,0,-,-,-
CCN(Cc1cccc(S(=O)(=O)O)c1)c1ccc(C(=C2C=CC(=[N+](CC)Cc3cccc(S(=O)(=O)O)c3)C=C2)c2ccc(O)cc2S(=O)(=O)O)cc1,-,-,-,-,-,-,9.5µM,?,8.2µM
